Measured values as given in patent US20090023685A1, “Nebulized or Sprayed Cidofovir for Recurrent Respiratory Papillomatosis” (priority 2007, published 2009).

Tested on: Recurrent Respiratory Papillomatosis due to Human Papillomavirus subtype 6 (HPV-6)
Assay: Case report: systemic, topical and nebulized cidofovir in a young child with recurrent respiratory papillomatosis
Type: in vivo
Conditions: systemic cidofovir q2 weeks plus Interferon α2b 5 MU/m^2 3× weekly
Procedure: We decided that applying cidofovir using a flexible bronchoscope and a cytology brush soaked in cidofovir would be a reasonable method to attempt to deliver the drug to the papillomas. We used the intravenous form of the drug, diluted to the concentration used in the gel based formula.
Nebulized drugs are administered by breaking up a solution of drug in a medication cup that has forced air going through it, making a “mist”. If the amount of solution in the medication cup has 4 ml in it, the resulting droplet size is 2-4 microns in diameter, the right size to deposit the drug into the airways after the main airway (trachea). Some drug will deposit more proximal (trachea) but the bulk of the drug deposits in the lower airways. Therefore, we made a 4 ml solution at the same concentration we were using for the topical application. This had numerous benefits for our patient: no more frequent trips to the operating room, the drug could be delivered more frequently, the drug could be administered at home, and obvious reduction of significant operative risks. Additionally, the drug could reach those airways which were unreachable by surgical means.
Herein we report the use of nebulized cidofovir to treat RRP disease in a young child without significant side effects. E presented with respiratory failure and stridor. […]

Interferon α2b
course of disease: ‘stabilized’ for 3 months | course of disease (listed as Interferon): did not halt the progression of the disease
